Biological target: Adenosine receptor A1 (Rattus norvegicus, UniProt P25099)

The chains behind the UniProt entries cited, without tags or fusion partners.
UniProt P25099, whole entry: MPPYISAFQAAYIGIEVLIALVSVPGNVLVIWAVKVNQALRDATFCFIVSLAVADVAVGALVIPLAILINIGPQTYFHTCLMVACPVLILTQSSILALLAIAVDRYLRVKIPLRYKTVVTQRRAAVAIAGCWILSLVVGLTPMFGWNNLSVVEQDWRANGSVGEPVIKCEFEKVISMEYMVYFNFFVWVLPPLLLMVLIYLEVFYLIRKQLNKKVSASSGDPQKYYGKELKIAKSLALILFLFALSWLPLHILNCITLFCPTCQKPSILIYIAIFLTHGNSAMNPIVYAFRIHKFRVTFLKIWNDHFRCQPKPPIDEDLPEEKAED

| SMILES | Ki [µM] |
| --- | --- |
| CCNC(=O)[C@H]1O[C@@H](n2cnc3c(N)nc(NCCc4ccc(CCC(=O)O)cc4)nc32)[C@H](O)[C@@H]1O [3-(4-{2-[6-Amino-9-((2R,3R,4S,5S)-5-ethylcarbamoyl-3,4-dihydroxy-tetrahydro-furan-2-yl)-9H-purin-2-ylamino]-ethyl}-phenyl)-propionic acid] | 3.08 |
| Nc1nc(Nc2ccccc2)nc2c1ncn2[C@@H]1O[C@H](CO)[C@H](O)C1O (some centres not stated) [(CV 1808) 2-(6-Amino-2-phenylamino-purin-9-yl)-5-hydroxymethyl-tetrahydro-furan-3,4-diol] | 0.91 |

Source: BindingDB's records for PubMed 2795469 (Ciba-Geigy, 1989)
